Data as given in PubChem BioAssay (NCI).
This is a selection; strong and weak results do not stand in their true shares. Active and inactive are the calls of the source. No stated cut-off is given here; in the data, active means growth inhibition above about 70%; inactive means the rest.

Tests used:
[1] = NCI Yeast Anticancer Drug Screen. Data for the rad50 strain (AID 155);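 further: 0% = growth of vehicle-only cultures of the same strain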; conditions: S. cerevisiae rad50 strain growth inhibition; at 50.0 µM; stronger effect = higher value
[2] = NCI Yeast Anticancer Drug Screen. Data for the mec2-1 strain (AID 157); conditions: S. cerevisiae mec2-1 strain, at 50.0 µM, stronger effect = higher value
[3] = NCI Yeast Anticancer Drug Screen. Data for the sgs1 mgt1 strain (AID 161);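 further: 0% = growth of cultures given vehicle only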; conditions: S. cerevisiae sgs1 mgt1 strain, at 50.0 µM, stronger effect = higher value
[4] = NCI Yeast Anticancer Drug Screen. Data for the cln2 rad14 strain (AID 165);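 further: 0% = growth equal to vehicle treated cultures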; conditions: S. cerevisiae cln2 rad14 strain, at 50.0 µM, stronger effect = higher value
[5] = NCI Yeast Anticancer Drug Screen. Data for the bub3 strain (AID 167); conditions: S. cerevisiae bub3 mutant strain, at 50.0 µM, stronger effect = higher value
[6] = NCI Yeast Anticancer Drug Screen. Data for the mlh1 rad18 strain (AID 175); conditions: S. cerevisiae mlh1 rad18 strain growth inhibition; at 50.0 µM; stronger effect = higher value

Measured: growth inhibition

CN(C)/C(N)=N/[N+](=O)[O-]
inactive: [1] -0.4% | [2] -7.25% | [3] -39.8% | [4] -19.2% | [5] 0.5% | [6] 0.95%

Clc1ccc(P(Cl)Cl)cc1
inactive: [1] 6.2% | [2] -26.2% | [3] 6.75% | [4] 1.95% | [5] -12.8% | [6] -5.2%

NS(=O)(=O)Cc1ccc([As](=O)(O)O)cc1
inactive: [1] -2.55% | [2] -26.9% | [3] -38.4% | [4] -15% | [5] -51.2% | [6] -1.65%

O=C(c1ccccc1)C1CCCN2CCCCC12 (centres undefined)
inactive: [1] 19.8% | [2] 3.85% | [3] 18.8% | [4] 15.9% | [5] -2.55% | [6] 8%

Nc1ncnc2nc(/N=N\N(CCCl)CCCl)[nH]c12
inactive: [1] -9.25% | [2] -12.4% | [3] -0.4% | [4] -36.6% | [5] 20.1% | [6] -6.95%

O=C(O)C1C[N+]12C=CC=CC2=O (centres undefined)
inactive: [1] 5.6% | [2] -4% | [3] 4.45% | [4] -58% | [5] 8.05% | [6] -7.5%

CC1(CCl)COP(=O)(n2ccnc2)OC1 (centres undefined)
inactive: [1] -16.7% | [2] -12.2% | [3] -7.05% | [4] -37% | [5] -18.2% | [6] -26.9%

Cc1cc(C)cc(OP(=O)(Cl)Oc2cc(C)cc(C)c2)c1
inactive: [1] -15.1% | [2] -42.5% | [3] -25.4% | [4] -7.55% | [5] -48% | [6] -10.9%

CCCCCCCCCCCC(=O)OCC(COP(=O)(Oc1ccccc1)N(CCCl)CCCl)OC(=O)CCCCCCCCCCC (centres undefined)
inactive: [1] 3.5% | [2] -2.25% | [3] -12.8% | [4] -4.95% | [5] -1.7% | [6] -0.65%

CC1=CC2O[C@@H]3C[C@H]4OC(=O)CCCCC(C(C)O)OCC(O)C5(C)OC5C(=O)OCC2(C[C@H]1O)[C@]4(C)[C@@]31CO1 (some centres undefined)
inactive: [1] 38% | [2] 37.8% | [3] 8.95% | [4] 30.1% | [5] 25.5% | [6] 0.15%

CCN(CCCl)Cc1csc2ccccc12
inactive: [1] 14.3% | [2] -7.45% | [3] 4.55% | [4] -43.2% | [5] -5% | [6] -11.8%

NC1=NP(=O)(Oc2ccccc2)N=C(Nc2ccccc2)N1 (centres undefined)
inactive: [1] 13.1% | [2] 15.2% | [3] 8.3% | [4] 20.3% | [5] -6.65% | [6] 16.7%

O=C1C(Cl)=C(NCCCl)C(=O)C(Cl)=C1NCCCl
inactive: [1] -3% | [2] 20.9% | [3] 10.4% | [4] -4.05% | [5] 16.6% | [6] 7.1%

FC(Cl)C(F)(F)Sc1ccc(Cl)cc1 (centres undefined)
inactive: [1] -21.7% | [2] -35.5% | [3] -24.6% | [4] -18.1% | [5] -41% | [6] -36.8%

COc1cc(CNCCCl)cc(OC)c1OC
inactive: [1] 9.7% | [2] -16.8% | [3] 6.5% | [4] -5.9% | [5] 3.1% | [6] -11.9%

CCCCNCCCC
inactive: [1] 1.3% | [2] 0.95% | [3] 2.45% | [4] -9.35% | [5] -6.95% | [6] -1.05%

O=C(CC(=O)c1ccccc1)OC1CN2CCC1CC2 (centres undefined)
inactive: [1] 34.4% | [2] 24.2% | [3] -8.45% | [4] 0.85% | [5] 27.8% | [6] 47.1%

ClP(c1ccccc1)c1ccccc1
inactive: [1] 19.8% | [2] -10.9% | [3] -6.1% | [4] 14.6% | [5] -13.8% | [6] 29%

ClCCN(CCCl)c1cccc(Oc2ccccc2)c1
inactive: [1] -17.5% | [2] 9.1% | [3] -6.45% | [4] -47.9% | [5] 17.4% | [6] -17.8%
